The target in data set [1] is Sodium channel protein type 10 subunit alpha (Rattus norvegicus, UniProt Q62968). The data set is described as follows: Modulator activity at rat Nav1.8 expressed in Xenopus laevis oocytes assessed as elicitation in sodium current measured after 1 to 4 days by two-electrode voltage clamp assay. It counts as cell-based. The following applies: oocyte. A digest of the protocol:
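Channel cRNA transcribed from linearized plasmid; 50 nL at 1 ng/nL injected into stage V–VI oocytes. Oocytes held in 96 mM NaCl, 2 mM KCl, 1.8 mM CaCl2, 2 mM MgCl2, 5 mM HEPES pH 7.4 with gentamycin. TEVC at 18–22 °C in the same solution, electrodes 3 M KCl, 0.8–1.5 MΩ. Currents filtered 1 kHz, sampled 20 kHz. EC50 from Hill equation fit.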
On the technique in general: Two-electrode voltage clamp is typically applied to oocytes expressing channels or transporters.

Data set [2] deals with Sodium channel protein type 5 subunit alpha (Homo sapiens, UniProt Q14524). The data set is described as follows: Modulator activity at human Nav1.5 expressed in Xenopus laevis oocytes assessed as elicitation in sodium current measured after 1 to 4 days by two-electrode voltage clamp assay. It counts as cell-based, Oocyte. A digest of the protocol: (§1)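 Channel cRNA, with auxiliary subunits rβ1, hβ1 or TipE, transcribed from linearized plasmids; 50 nL of 1 ng/nL injected into stage V–VI X. laevis oocytes, kept in 96 mM NaCl, 2 mM KCl, 1.8 mM CaCl2, 2 mM MgCl2, 5 mM HEPES pH 7.4 with gentamycin. Two-electrode voltage clamp at 18–22 °C in same bath solution; 3 M KCl electrodes of 0.8–1.5 MΩ; currents filtered at 1 kHz, sampled at 20 kHz. EC50 from Hill equation fit.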

Data set [3] has as its target Sodium channel protein type 3 subunit alpha (Rattus norvegicus, UniProt P08104). The data set is described as follows: Modulator activity at rat Nav1.3 expressed in Xenopus laevis oocytes assessed as elicitation in sodium current measured after 1 to 4 days by two-electrode voltage clamp assay. It counts as cell-based, Oocyte. A digest of the protocol:
as §1

The target in data set [4] is Sodium channel protein type 2 subunit alpha (Rattus norvegicus, UniProt P04775). The data set is described as follows: Modulator activity at rat Nav1.2 expressed in Xenopus laevis oocytes assessed as elicitation in sodium current measured after 1 to 4 days by two-electrode voltage clamp assay. It counts as cell-based, Oocyte. A digest of the protocol:
as §1

Data set [5] is described as follows: Toxicity in Artemia salina assessed as mortality incubated for 24 hrs in dark by microwell assay. It counts as organism-based. A digest of the protocol:
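Nauplii hatched from cysts in aerated artificial seawater (33 g/L), harvested at 24 h, RT. Peptide at 0.003–300 μM in water, in duplicate wells with water control, plus 10–15 nauplii in salt water. Dead and immobilized nauplii counted under a microscope, then the rest killed with MeOH and all counted. % dead or immobilized per well; EC50 by nonlinear regression.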

Data set [6] concerns the target Sodium channel protein type 4 subunit alpha (Rattus norvegicus, UniProt P15390). The data set is described as follows: Modulator activity at rat Nav1.4 expressed in Xenopus laevis oocytes assessed as elicitation in sodium current measured after 1 to 4 days by two-electrode voltage clamp assay. It counts as cell-based, Oocyte. An outline of the steps: as §1
A short description of data set [7]: Modulator activity at german cockroach Nav1 expressed in Xenopus laevis oocytes assessed as elicitation in sodium current measured after 1 to 4 days by two-electrode voltage clamp assay. It counts as cell-based. The following applies: Blattella germanica, Oocyte. An outline of the steps:
as §1

Data set [8] concerns the target Sodium channel protein type 1 subunit alpha (Homo sapiens, UniProt P35498). The data set is described as follows: Modulator activity at human Nav1.1 expressed in Xenopus laevis oocytes assessed as elicitation in sodium current measured after 1 to 4 days by two-electrode voltage clamp assay. It counts as cell-based, Oocyte. A digest of the protocol: as §1
The target of data set [9] is Sodium channel protein type 8 subunit alpha (Mus musculus, UniProt Q9WTU3). The data set is described as follows: Modulator activity at mouse Nav1.6 expressed in Xenopus laevis oocytes assessed as elicitation in sodium current measured after 1 to 4 days by two-electrode voltage clamp assay. It counts as cell-based, Oocyte. An outline of the steps: as §1
For data set [10], the target named is Sodium channel protein type 9 subunit alpha (Homo sapiens, UniProt Q15858). The data set is described as follows: Modulator activity at human Nav1.7 expressed in Xenopus laevis oocytes assessed as elicitation in sodium current measured after 1 to 4 days by two-electrode voltage clamp assay. It counts as cell-based, Oocyte. A digest of the protocol:
as §1

As usually defined, the EC50 is the concentration that produces a half-maximal response. With `CC[C@H](C)[C@@H]1NC(=O)[C@@H](NC(=O)CN)CSSC[C@@H]2NC(=O)[C@@H]3CSSC[C@@H](C(=O)N[C@@H](CC(N)=O)C(=O)N4C[C@@H](O)C[C@H]4C(=O)N4C[C@@H](O)C[C@H]4C(=O)N[C@@H](CC(N)=O)C(=O)N[C@@H](CCC(N)=O)C(=O)O)NC(=O)[C@H](CCCCN)NC(=O)[C@H](Cc4ccccc4)NC(=O)[C@H](CC(N)=O)NC(=O)[C@H](Cc4c[nH]c5ccccc45)NC(=O)CNC(=O)[C@H](CSSC[C@H](NC(=O)[C@H](Cc4ccccc4)NC(=O)[C@H](CO)NC(=O)CNC(=O)[C@H]([C@@H](C)O)NC(=O)[C@H](C)NC1=O)C(=O)N[C@@H]([C@@H](C)O)C(=O)N[C@@H](CC(C)C)C(=O)N[C@@H](CO)C(=O)N[C@@H](CCCCN)C(=O)NCC(=O)N3)NC(=O)[C@H](CC(N)=O)NC(=O)[C@H](CCCCN)NC(=O)[C@H]([C@@H](C)O)NC2=O`, the half-maximal effective concentration (EC50) entry is “Not Active” in data set [1]; 0.138 µM in data set [2]; 0.135 µM in data set [3]; 0.36 µM in [4]; 0.145 µM in data set [6]; 0.0086 µM in data set [7]. The concentration for a half-maximal effect (EC50) in [8] was 0.124 µM; in data set [9], 0.24 µM; in data set [10], 0.0765 µM. The EC50 at 24 h in data set [5] was 0.3 µM.

The values above are taken from ChEMBL document CHEMBL5036335, “Functional Characterization of the Nemertide α Family of Peptide Toxins” (J Nat Prod, 2021).
